According to the supplement of paper PMC6461962:

Columns and labels:
[1] = tested on: Pseudomonas fluorescens FW300-N2E2
Experimental: (§1)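 Dose-response growth inhibition of groundwater bacterial isolates (Rhodanobacter sp. FW104-10B01, Pseudomonas fluorescens FW300-N2E2) by 80 inorganic ion salts and NTA complexes in 384-well plates at 30 °C, in several media and electron-acceptor conditions. OD600 was read at 24 h (48 h for N2E2 vs 10B01 comparisons in R2A) and normalised to water (100% growth) and 0.2 g/L chloramphenicol (0% growth) controls. IC50 was fitted with the drc R package from at least two biological replicate curves; > and < give the highest or lowest concentration screened.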

[2] = tested on: Rhodanobacter sp. FW104-10B01
Experimental: as §1

[O-][Br+2]([O-])O [Sodium bromate]
IC50 growth inhibition ([1]; medium / electron acceptor: N2E2 Glucose/aerobic): 318 mM
IC50 growth inhibition ([1]; medium / electron acceptor: N2E2 Glucose/aerobic 0.25xMinerals): 290 mM
IC50 growth inhibition ([1]; medium / electron acceptor: N2E2 Glucose/aerobic (2)): 105 mM
IC50 growth inhibition ([1]; medium / electron acceptor: N2E2 KB/aerobic): 43.8 mM
IC50 growth inhibition ([1]; medium / electron acceptor: N2E2 LB/aerobic): 261 mM
IC50 growth inhibition ([1]; medium / electron acceptor: N2E2 LB/aerobic (2)): 284 mM
IC50 growth inhibition ([1]; medium / electron acceptor: N2E2 LB/nitrate): 7.77 mM
IC50 growth inhibition ([1]; medium / electron acceptor: N2E2 Lactate/aerobic): > 500 mM
IC50 growth inhibition ([1]; medium / electron acceptor: N2E2 R2A/aerobic): 166 mM
IC50 growth inhibition ([2]; medium / electron acceptor: 10B01 R2A/aerobic): > 500 mM
IC50 growth inhibition ([2]; medium / electron acceptor: 10B01 R2A/nitrate): > 500 mM
